## Yeast mating assay B: variants of the scFv Ab-14

All variants were tested on one target, the spike HR2 peptide PDVDLGDISGINAS (SARS-CoV-2).

The variants keep the heavy chain, the linker and the frameworks of Ab-14 (scFv order VH, three GGGGS repeats, VL).
VH: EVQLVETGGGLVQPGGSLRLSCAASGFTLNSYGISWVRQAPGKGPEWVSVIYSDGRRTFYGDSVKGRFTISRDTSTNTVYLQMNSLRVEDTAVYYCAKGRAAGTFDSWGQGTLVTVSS
VL: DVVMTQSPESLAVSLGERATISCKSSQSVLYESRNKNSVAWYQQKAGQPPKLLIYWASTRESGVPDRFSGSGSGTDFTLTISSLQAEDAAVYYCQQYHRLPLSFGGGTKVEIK

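The parent was found by panning a naive human phage display library on the peptide. This is the validation round: designs drawn from the data on random variants, tested in the same kind of assay. Their group label is 14L_GP_Gen (GP: Gaussian process model; Gen: genetic algorithm; a sequence that several methods proposed may carry one label only). Affinity was read by AlphaSeq, a pooled yeast mating assay with surface-displayed partners. Mating (16 h, 30 °C) was followed by selection of diploids and sequencing of their barcodes. Read counts were normalised to the haploid input and turned into Kd by a linear fit to BCL2-family pairs of known affinity, for each replicate. Each pool was mated in six replicate cultures.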

Variants are written as CDR1, CDR2 and CDR3 of the light chain (limits as in the source). Parent: KSSQSVLYESRNKNSVA, WASTRES, QQYHRLPLS.
Numbers give log10(Kd / nM), so 0 is 1 nM and 3 is 1 µM. Smaller is tighter.
"nd" marks a missing value. The strain was present, yet no cells mated with the target were sequenced in that replicate, which points to weak or no binding.

| # | CDR-L1 | CDR-L2 | CDR-L3 | replicates, log10 nM | control signals |
|---|---|---|---|---|---|
| 1 | KLSQSVQYESRNKNNVA | NASTRES | QQYHRLPLS | -0.55 / -0.52 / -0.55 / -0.62 / -0.59 / -0.51 | 1/18 (3.04) |
| 2 | KLQQSFLYESRNKNSVA | NASTRCS | QQYHRLPLS | 0.02 / 0.03 / -0.04 / -0.11 / -0.18 / 0.07 | 2/18 (3.38) |
| 3 | KLSQSVLYESRQKNNVA | NASTRES | QQYHRLPLS | -0.16 / -0.14 / -0.10 / -0.40 / -0.35 / -0.21 | 1/18 (3.21) |
| 4 | KFQQSYLYESRNKNSVA | NASTRES | QQYHRLPLS | -0.22 / -0.40 / -0.34 / -0.57 / -0.52 / -0.31 | 1/18 (3.05) |
| 5 | KLSWSVLYESRNKNSVA | NASTRES | QQYHRLPLS | -0.14 / -0.06 / -0.18 / -0.34 / -0.20 / -0.06 | 0/18 |
| 6 | CLSQSVLYESRNKNSVA | NASTRES | QQYHRLPLS | -0.18 / -0.28 / -0.45 / -0.41 / -0.25 / -0.22 | 1/18 (2.44) |
| 7 | KLEQSDLYESRNKNAVA | NASQRES | QQYHRLPLS | 0.28 / 0.04 / 0.00 / -0.36 / -0.08 / 0.09 | 1/18 (2.92) |
| 8 | KVSQSELYESRNKNSVA | EASTRES | QDYHRLPLS | 0.47 / 0.04 / -0.02 / -0.14 / -0.10 / 0.09 | 0/18 |
| 9 | KISQSELYEDRNKNSVA | NASQRES | QQYHRLPLS | -0.24 / -0.16 / -0.37 / -0.25 / -0.42 / -0.12 | 1/18 (3.00) |
| 10 | KLQQSVLYESRNKNSVA | GASQRLS | QQYHRLPLS | 0.10 / -0.08 / 0.07 / -0.11 / 0.03 / 0.06 | 2/18 (3.02) |
| 11 | KLSWSQLYESRNKNSVA | NASQRES | QQYHRLPLS | 0.15 / 0.21 / 0.13 / -0.10 / -0.05 / 0.21 | 0/18 |
| 12 | KWSQSQLYESRNKNSVA | NASQRES | QQYHRLPLS | nd / nd / nd / nd / nd / nd | 0/18 |
| 13 | KLSQSELYESRNCNSVA | NASTRES | QQYHRLPLS | -0.26 / -0.18 / -0.36 / -0.08 / 0.25 / 0.19 | 1/18 (1.97) |
| 14 | KLSQSGLYESRNKNNVA | HASTRES | QQYHRLPLS | -0.02 / -0.31 / -0.27 / -0.42 / -0.30 / -0.12 | 3/18 (3.06) |
| 15 | KLDQSELYESRNKNSVA | NASTRMS | QQYHRLPLS | 0.16 / -0.09 / -0.27 / -0.29 / -0.20 / 0.00 | 2/18 (2.75) |
| 16 | KLSFSQLYESRNKNSVA | NASTRES | QQYHRLPLS | -0.32 / -0.53 / -0.48 / -0.58 / -0.51 / -0.31 | 1/18 (2.40) |
| 17 | KMSQSELYEDRNKNSVA | NASQRES | QQYHRLPLS | -0.23 / -0.51 / -0.51 / -0.49 / -0.56 / -0.22 | 0/18 |
| 18 | KIEQSWLYESRNKNSVA | NASQRES | QQYHRLPLS | -0.06 / 0.09 / -0.21 / -0.36 / -0.38 / -0.13 | 2/18 (3.66) |
| 19 | KLSQSVLYEDRNKNSVA | NASQRES | QDYHRLPLS | 0.10 / 0.23 / -0.06 / -0.22 / -0.14 / 0.24 | 2/18 (2.52) |
| 20 | KVQQSMLYESRNKNSVA | DASTRES | QQYHRLPLS | 0.42 / 0.01 / 0.17 / -0.16 / 0.46 / 0.03 | 0/18 |
| 21 | KLSQSVMYESRNKNSVA | NASTREM | QQYHRLPLS | 0.48 / 0.43 / 0.14 / 0.43 / 0.27 / 0.37 | 0/18 |
| 22 | KVSQSVLYESRNKNSVA | EASTRCS | QQYHRLPLS | 1.48 / 0.83 / 1.23 / 1.01 / 0.93 / 1.39 | 0/18 |
| 23 | KLSQSQLYESRNKNSVA | NASTREK | QQYHRLPLS | -0.09 / -0.19 / -0.30 / -0.45 / -0.31 / -0.26 | 0/18 |
| 24 | KLSQSWLYESRNSNSVA | NASTREV | QQYHRLPLS | 0.34 / 0.34 / 0.31 / 0.31 / 0.00 / 0.41 | 1/18 (3.06) |
| 25 | KLSQSQPYESRNKNSVA | NASTRES | QQYHRLPLS | 0.35 / 0.29 / 0.06 / 0.02 / 0.10 / 0.39 | 4/18 (2.57) |
| 26 | KLSQSELYESRNKNAVA | NASQRES | QQYHRLPLS | 0.08 / 0.11 / 0.15 / 0.27 / -0.23 / 0.23 | 0/18 |
| 27 | KLMQSHLYESRNKNSVA | EASTRES | QQYHRLPLS | 0.11 / 0.12 / 0.05 / -0.29 / 0.03 / 0.02 | 0/18 |
| 28 | KLSQSVMMESRNKNSVA | HASTRES | QQYHRLPLS | -0.07 / -0.28 / 0.42 / 0.00 / 0.15 / -0.32 | 0/18 |
| 29 | KLQMSWLYESRNKNSVA | NASTRES | QQYHRLPLS | -0.33 / -0.33 / -0.51 / -0.44 / -0.31 / -0.20 | 0/18 |
| 30 | KLSQSVLYESRNKNSVA | DASTRLS | QDYHRLPLS | -0.28 / -0.28 / -0.39 / -0.43 / -0.42 / -0.16 | 0/18 |
| 31 | KLSQSELYESRNKNSVA | SASTRES | QQYHRLPLS | 0.04 / -0.03 / -0.16 / -0.24 / -0.16 / 0.05 | 1/18 (2.76) |
| 32 | KLEQSVLYESRNKNSVA | NASTREM | QQYHRLPLS | -0.41 / -0.45 / -0.62 / -0.79 / -0.65 / -0.30 | 1/18 (4.32) |
| 33 | KLSQSNLYESRNKNSVA | NASTRES | QQYHRLPLS | 0.18 / 0.29 / 0.27 / 0.18 / 0.25 / 0.41 | 2/18 (2.48) |
| 34 | KLSQSDLYESRNKNAVA | EASTRES | QQYHRLPLS | -0.03 / -0.66 / -0.56 / -0.63 / -0.92 / -0.52 | 1/18 (2.03) |
| 35 | KLSQQVLYESRNKNSVA | NASQRES | QQYHRLPLS | 0.14 / -0.24 / -0.26 / -0.40 / -0.41 / -0.16 | 0/18 |
| 36 | KLSQSVLYEQRNKNSVA | EASTREV | QQYHRLPLS | -0.05 / -0.11 / -0.29 / -0.48 / -0.28 / -0.09 | 2/18 (3.16) |
| 37 | KVSPSVLYESRNKNAVA | EASTRES | QQYHRLPLS | -0.60 / -0.81 / -0.96 / -0.92 / -0.99 / -0.74 | 1/18 (2.25) |
| 38 | KLSQSVLYESRNKNSVA | EASTRED | QQYHRLPLS | 0.10 / 0.00 / -0.15 / -0.21 / -0.40 / -0.06 | 1/18 (2.04) |
| 39 | KLSQSTLYESRNKNSVA | NASTRLS | QQYHRLPLS | -0.16 / -0.33 / -0.24 / -0.38 / -0.25 / -0.06 | 1/18 (2.78) |
| 40 | KLSQSFLYEERNKNSVA | NASQRES | QQYHRLPLS | -0.05 / -0.06 / -0.41 / -0.62 / -0.33 / -0.04 | 1/18 (3.03) |
| 41 | KMQQSELYESRNKNSVA | NASQRMS | QQYHRLPLS | 0.09 / -0.11 / 0.06 / -0.29 / -0.10 / 0.03 | 0/18 |
| 42 | KLSQSVLYESRNKNSVA | NAQTRES | QQYHRLPLS | -0.22 / -0.46 / -0.46 / -0.62 / -0.47 / -0.31 | 2/18 (2.85) |
| 43 | KLEQSELYESRNKNSVA | NASQRMS | QQYHRLPLS | 0.31 / 0.23 / 0.18 / 0.24 / 0.09 / 0.35 | 1/18 (3.78) |
| 44 | KISQSVLYESRNKNNVA | NASTRES | QQYHRLPLS | -0.15 / -0.39 / -0.57 / -0.57 / -0.45 / -0.50 | 1/18 (2.79) |
| 45 | KLSQSVWYESRNKNSVA | NASTRES | QQYHRLPLS | -0.18 / -0.09 / -0.10 / -0.01 / 0.37 / 0.38 | 1/18 (1.26) |
| 46 | KMPQSELYESRNKNSVA | NASTRMS | QQYHRLPLS | 0.22 / 0.16 / -0.12 / -0.19 / -0.20 / 0.05 | 2/18 (2.84) |
| 47 | KLPQSMLYESRNKNSVA | QASTRES | QQYHRLPLS | -0.38 / -0.38 / -0.71 / -0.82 / -0.72 / -0.49 | 1/18 (1.98) |
| 48 | KLMQSVWYESRNKNSVA | NASTRES | QQYHRLPLS | -0.04 / 0.06 / -0.28 / -0.20 / -0.27 / -0.07 | 3/18 (2.44) |
| 49 | KLSWSELYESRNKNSVA | NASQRES | QQYHRLPLS | -0.05 / 0.11 / -0.18 / -0.21 / -0.11 / 0.05 | 0/18 |
| 50 | KLSQSQLYESRMKNSVA | NASQRES | QQYHRLPLS | 0.62 / 0.66 / 0.30 / 0.32 / 0.47 / 0.37 | 0/18 |
| 51 | KLSMSMLYESRNKNSVA | NASTRMS | QQYHRLPLS | 0.33 / 0.21 / 0.13 / 0.05 / 0.25 / 0.11 | 0/18 |
| 52 | KLSQSVWYESRMKNSVA | NASTRES | QQYHRLPLS | 0.34 / 0.29 / 0.01 / -0.05 / 0.13 / 0.32 | 0/18 |

Top 7 of the variants detected in all replicates, tightest first:

| CDR-L1 | CDR-L2 | CDR-L3 | replicates, log10 nM | control signals |
|---|---|---|---|---|
| KVSPSVLYESRNKNAVA | EASTRES | QQYHRLPLS | -0.60 / -0.81 / -0.96 / -0.92 / -0.99 / -0.74 | 1/18 (2.25) |
| KLPQSMLYESRNKNSVA | QASTRES | QQYHRLPLS | -0.38 / -0.38 / -0.71 / -0.82 / -0.72 / -0.49 | 1/18 (1.98) |
| KLSQSVQYESRNKNNVA | NASTRES | QQYHRLPLS | -0.55 / -0.52 / -0.55 / -0.62 / -0.59 / -0.51 | 1/18 (3.04) |
| KLSQSDLYESRNKNAVA | EASTRES | QQYHRLPLS | -0.03 / -0.66 / -0.56 / -0.63 / -0.92 / -0.52 | 1/18 (2.03) |
| KLEQSVLYESRNKNSVA | NASTREM | QQYHRLPLS | -0.41 / -0.45 / -0.62 / -0.79 / -0.65 / -0.30 | 1/18 (4.32) |
| KLSFSQLYESRNKNSVA | NASTRES | QQYHRLPLS | -0.32 / -0.53 / -0.48 / -0.58 / -0.51 / -0.31 | 1/18 (2.40) |
| KISQSVLYESRNKNNVA | NASTRES | QQYHRLPLS | -0.15 / -0.39 / -0.57 / -0.57 / -0.45 / -0.50 | 1/18 (2.79) |

A sequence measured in both rounds can read differently, since the two assays cover different ranges.
The authors averaged sequences with at least three values out of six and counted those with two or fewer as poor binders.
Nonspecific signal, from three strains lacking the peptide, appeared in 4% of pairings of all light chain designs, centred on 2.64 (5% of these signals below 1.59); values are not corrected for it. The control count says in how many pairings with the empty strains this scFv gave a signal, with their mean in brackets.

The measurements come from Li et al. 2023 (doi:10.1038/s41467-023-39022-2) through the FLAb antibody collection.